The target of series [1] is hERG (Homo sapiens, UniProt Q12809). Briefly: hERG IC50. As to conditions: read-out: hERG IC50 (μm). On the technique in general: hERG is a cardiac potassium channel; its block is linked to QT prolongation.
The target in series [2] is colon 15-PGDH (Mus musculus, UniProt Q8VCC1). Briefly: Colon 15-PGDH activity 30 minutes after oral dosing of mice at 10 mg/kg. Particulars: for Colon enzyme inhibition 30 min following 10 mpk PO: mice; for inhibition of colon 15-PGDH activity at 30 minutes: given orally to mice at 10 mpk, negative value = increased activity.
For series [3], the system named is A549 cells. Briefly: Induction of PGE2 from IL1-β treated A549 cells. Particulars: read-out: Elevation of PGE2 in A549 cell culture media (EC50); A549 cells stimulated with IL1-β for 24 hours.
Series [4] in a line: Human microsome stability. As to conditions: human microsomes.

Protein sequences, listed by entry. Tags and fused reporters are not part of them.
UniProt Q12809, whole entry: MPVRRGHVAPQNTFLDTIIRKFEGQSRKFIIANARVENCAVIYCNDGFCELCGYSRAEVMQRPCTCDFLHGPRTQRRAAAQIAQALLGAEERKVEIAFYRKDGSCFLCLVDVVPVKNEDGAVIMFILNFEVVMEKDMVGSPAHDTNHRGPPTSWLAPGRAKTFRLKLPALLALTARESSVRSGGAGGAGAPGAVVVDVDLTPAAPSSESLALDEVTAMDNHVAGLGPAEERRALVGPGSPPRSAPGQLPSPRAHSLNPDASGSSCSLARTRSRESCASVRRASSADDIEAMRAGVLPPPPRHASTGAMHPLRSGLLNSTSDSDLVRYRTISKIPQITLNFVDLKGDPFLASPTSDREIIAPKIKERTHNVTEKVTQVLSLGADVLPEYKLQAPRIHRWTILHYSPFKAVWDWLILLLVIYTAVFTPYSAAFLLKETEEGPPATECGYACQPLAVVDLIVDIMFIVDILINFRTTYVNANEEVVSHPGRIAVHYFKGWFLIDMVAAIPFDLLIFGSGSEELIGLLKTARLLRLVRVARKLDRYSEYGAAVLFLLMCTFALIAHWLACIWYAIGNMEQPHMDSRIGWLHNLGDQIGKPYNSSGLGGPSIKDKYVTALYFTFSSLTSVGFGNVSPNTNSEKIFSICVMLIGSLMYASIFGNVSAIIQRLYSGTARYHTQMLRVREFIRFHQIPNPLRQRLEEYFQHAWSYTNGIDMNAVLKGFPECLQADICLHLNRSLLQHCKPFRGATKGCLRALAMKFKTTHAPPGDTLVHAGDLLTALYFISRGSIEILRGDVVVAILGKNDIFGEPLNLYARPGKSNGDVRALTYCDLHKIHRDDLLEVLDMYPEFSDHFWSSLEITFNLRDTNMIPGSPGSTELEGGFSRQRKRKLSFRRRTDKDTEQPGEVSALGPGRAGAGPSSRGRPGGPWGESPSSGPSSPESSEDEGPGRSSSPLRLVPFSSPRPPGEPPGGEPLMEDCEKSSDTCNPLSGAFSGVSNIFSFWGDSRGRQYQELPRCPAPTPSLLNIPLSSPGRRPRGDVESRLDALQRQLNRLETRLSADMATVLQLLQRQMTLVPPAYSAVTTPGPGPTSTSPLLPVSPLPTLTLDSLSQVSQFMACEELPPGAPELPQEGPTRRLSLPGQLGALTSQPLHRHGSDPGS
UniProt Q8VCC1, whole entry: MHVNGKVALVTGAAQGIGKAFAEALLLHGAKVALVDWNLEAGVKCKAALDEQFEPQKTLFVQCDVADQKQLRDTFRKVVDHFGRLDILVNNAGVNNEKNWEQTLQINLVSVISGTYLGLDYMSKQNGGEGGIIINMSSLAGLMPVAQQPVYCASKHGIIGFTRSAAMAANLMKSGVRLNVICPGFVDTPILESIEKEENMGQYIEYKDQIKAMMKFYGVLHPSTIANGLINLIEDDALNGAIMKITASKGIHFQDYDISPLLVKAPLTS

`COCC[S@@+]([O-])c1sc2nc(-c3cnc(N)nc3)cc(-c3ccccc3)c2c1N` [Example 87]: in series [1], the IC50 was > 15000 nM. Moreover, in series [2], the “Colon enzyme inhibition 30 min following 10 mpk PO” value is given as >90%. The EC50 in series [3] is ≤ 10 nM. Further, in series [4], the “Human microsome stability (T½, min)” value is ≥60 min.

For `Nc1c([S@+]([O-])C2CCC2)sc2nc(-c3cnc(NCCO)nc3)cc(C3CC3)c12`, the IC50 in series [1] was > 15000 nM. In addition, the EC50 in series [3] was ≤ 10 nM. In series [4], the “Human microsome stability (T½, min)” value is listed as ≥60 min.

As to `COCCC[S@@+]([O-])c1sc2nc(-c3ccc(=O)n(C)c3)cc(-c3ccccc3)c2c1N`, the IC50 in series [1] is > 15000 nM. Further, the “Colon enzyme inhibition 30 min following 10 mpk PO” value in series [2] is >90%. Also, the 50% effective concentration (EC50) in series [3] is ≤ 10 nM. The “Human microsome stability (T½, min)” value in series [4] is listed as ≥60 min.

For `COCCC[S@@+]([O-])c1sc2nc(-c3cnc(N)nc3)cc(-c3ccccc3)c2c1N`, the IC50 in series [1] was ≤ 15000 nM. Besides, the “Colon enzyme inhibition 30 min following 10 mpk PO” value in series [2] is >90%. In addition, the concentration for a half-maximal effect (EC50) in series [3] was ≤ 10 nM. The “Human microsome stability (T½, min)” value in series [4] was <60 min.

On to `Nc1c([S@+]([O-])C2CCC2)sc2nc(-c3cnc(NCCO)nc3)cc(-c3ccccc3)c12` [Example 51], for which the IC50 in series [1] was > 15000 nM. Also, in series [2], the “Colon enzyme inhibition 30 min following 10 mpk PO” value is >90%. For the same compound, the half-maximal effective concentration (EC50) in series [3] was ≤ 10 nM. Besides, the “Human microsome stability (T½, min)” value in series [4] is ≥60 min.

In the case of `COCCC[S@@+]([O-])c1sc2nc(-c3cncnc3)cc(-c3ncccn3)c2c1N` [Example 111], in series [1], the IC50 was > 15000 nM. Also, the “Colon enzyme inhibition 30 min following 10 mpk PO” value in series [2] is <70%. For the same compound, in series [3], the concentration for a half-maximal effect (EC50) is > 10 nM. Moreover, the “Human microsome stability (T½, min)” value in series [4] is given as ≥60 min.

As to `Cn1nccc1-c1cc(-c2cncnc2)nc2sc([S@+]([O-])C3CCC3)c(N)c12`, the IC50 in series [1] is > 15000 nM. Besides, the EC50 in series [3] is ≤ 10 nM. Further, in series [4], the “Human microsome stability (T½, min)” value is reported as ≥60 min.

On to `COCC[S@@+]([O-])c1sc2nc(-c3cnc4nn(C)cc4c3)cc(C3CC3)c2c1N`, for which the IC50 in series [1] was > 15000 nM. Moreover, in series [2], the “Colon enzyme inhibition 30 min following 10 mpk PO” value was >90%. The EC50 in series [3] was ≤ 10 nM. Further, the “Human microsome stability (T½, min)” value in series [4] is on record as ≥60 min.

Take `COCCC[S@@+]([O-])c1sc2nc(-c3cccnc3)cc(-c3ccccc3)c2c1N`: in series [1], the half-maximal inhibitory concentration (IC50) was ≤ 15000 nM. Moreover, the “inhibition of colon 15-PGDH activity at 30 minutes” value in series [2] is listed as −55.2%. In addition, the concentration giving a half-maximal response (EC50) in series [3] was ≤ 10 nM. Also, the “Human microsome stability (T½, min)” value in series [4] is reported as <60 min.

As to `COCC[S@@+]([O-])c1sc2nc(-c3cnc(NCCO)nc3)cc(-c3ccccc3)c2c1N`, the IC50 in series [1] was > 15000 nM. Moreover, the concentration for a half-maximal effect (EC50) in series [3] was ≤ 10 nM. The “Human microsome stability (T½, min)” value in series [4] is ≥60 min.

For `COCC[S@@+]([O-])c1sc2nc(-c3cncnc3)cc(-c3ccccc3)c2c1N` [Example 85], the IC50 in series [1] is > 15000 nM. Also, the “Colon enzyme inhibition 30 min following 10 mpk PO” value in series [2] is recorded as >90%. Moreover, in series [3], the EC50 was ≤ 10 nM. Moreover, the “Human microsome stability (T½, min)” value in series [4] is on record as ≥60 min.

As to `COCC[S@@+]([O-])c1sc2nc(-c3cccnc3)cc(C(F)(F)F)c2c1N` [Example 80], the IC50 in series [1] was > 15000 nM. Further, the “Colon enzyme inhibition 30 min following 10 mpk PO” value in series [2] is reported as <70%. Further, in series [3], the EC50 is ≤ 10 nM. Moreover, the “Human microsome stability (T½, min)” value in series [4] is listed as ≥60 min.

Regarding `COCC[S@@+]([O-])c1sc2nc(-c3cnc(N)nc3)cc(C3CC3)c2c1N` [Example 150], in series [1], the half-inhibitory concentration (IC50) was > 15000 nM. For the same compound, in series [2], the “Colon enzyme inhibition 30 min following 10 mpk PO” value is given as >90%. Further, the EC50 in series [3] was ≤ 10 nM. Moreover, the “Human microsome stability (T½, min)” value in series [4] is reported as ≥60 min.

As to `CCCC[S@@+]([O-])c1sc2nc(-c3nccs3)cc(-c3cnc(C)n3C)c2c1N`, in series [2], the “inhibition of colon 15-PGDH activity at 30 minutes” value is reported as −55.2% and the “Colon enzyme inhibition 30 min following 10 mpk PO” value is reported as <70%. Moreover, the concentration for a half-maximal effect (EC50) in series [3] was > 10 nM. For the same compound, the “Human microsome stability (T½, min)” value in series [4] is on record as <60 min.

For the compound `COCCC[S@@+]([O-])c1sc2nc(-c3cccnc3)cc(C(F)(F)F)c2c1N` [Example 78], in series [1], the IC50 is > 15000 nM. Also, the “Colon enzyme inhibition 30 min following 10 mpk PO” value in series [2] was <70%. Moreover, in series [3], the EC50 is ≤ 10 nM. The “Human microsome stability (T½, min)” value in series [4] is ≥60 min.

For orientation: IC50 means the concentration at which inhibition is half-maximal. By EC50 is commonly meant the concentration that produces a half-maximal response.
